Earlier results in patent US20220380431A1, “GLYCOPEPTIDE ANALOGS OF SECRETIN FAMILY PEPTIDES” (ARIZONA BOARD OF REGENTS ON BEHALF OF THE UNIVERSITY OF …, priority 2017, published 2022).

By UniProt entry, the sequences of proteins in these tests, tags left out. Residues count along the entry.
UniProt P32241, 31-457: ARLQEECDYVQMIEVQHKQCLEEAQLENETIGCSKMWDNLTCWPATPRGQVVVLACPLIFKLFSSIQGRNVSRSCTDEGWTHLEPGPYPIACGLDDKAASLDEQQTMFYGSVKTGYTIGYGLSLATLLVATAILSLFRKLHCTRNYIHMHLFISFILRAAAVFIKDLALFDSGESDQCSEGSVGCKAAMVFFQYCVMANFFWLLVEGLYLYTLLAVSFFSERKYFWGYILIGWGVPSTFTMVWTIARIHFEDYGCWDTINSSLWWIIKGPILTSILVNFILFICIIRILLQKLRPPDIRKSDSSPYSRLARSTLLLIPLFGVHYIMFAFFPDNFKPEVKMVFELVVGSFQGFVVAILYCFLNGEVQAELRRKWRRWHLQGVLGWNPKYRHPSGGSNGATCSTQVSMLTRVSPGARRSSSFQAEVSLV

Experiments:
Details in all cases: background statement; cited from earlier work
[1] = molecular target: T1, VPAC2 (Homo sapiens, UniProt P41587)
T1 sequence (P41587 24-438): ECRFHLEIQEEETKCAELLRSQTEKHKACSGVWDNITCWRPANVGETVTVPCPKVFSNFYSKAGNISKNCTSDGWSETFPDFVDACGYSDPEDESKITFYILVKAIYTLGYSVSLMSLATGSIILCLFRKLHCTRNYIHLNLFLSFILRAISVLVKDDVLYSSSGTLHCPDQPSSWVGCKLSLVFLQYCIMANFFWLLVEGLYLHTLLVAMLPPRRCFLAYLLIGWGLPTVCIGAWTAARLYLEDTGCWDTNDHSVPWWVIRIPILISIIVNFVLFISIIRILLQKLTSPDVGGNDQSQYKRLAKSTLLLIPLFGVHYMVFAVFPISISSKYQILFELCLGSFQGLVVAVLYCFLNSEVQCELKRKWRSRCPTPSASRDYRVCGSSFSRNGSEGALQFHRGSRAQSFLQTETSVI

[2] = molecular target: T2, PAC1 (Homo sapiens, UniProt P41586)
T2 sequence (P41586 21-468): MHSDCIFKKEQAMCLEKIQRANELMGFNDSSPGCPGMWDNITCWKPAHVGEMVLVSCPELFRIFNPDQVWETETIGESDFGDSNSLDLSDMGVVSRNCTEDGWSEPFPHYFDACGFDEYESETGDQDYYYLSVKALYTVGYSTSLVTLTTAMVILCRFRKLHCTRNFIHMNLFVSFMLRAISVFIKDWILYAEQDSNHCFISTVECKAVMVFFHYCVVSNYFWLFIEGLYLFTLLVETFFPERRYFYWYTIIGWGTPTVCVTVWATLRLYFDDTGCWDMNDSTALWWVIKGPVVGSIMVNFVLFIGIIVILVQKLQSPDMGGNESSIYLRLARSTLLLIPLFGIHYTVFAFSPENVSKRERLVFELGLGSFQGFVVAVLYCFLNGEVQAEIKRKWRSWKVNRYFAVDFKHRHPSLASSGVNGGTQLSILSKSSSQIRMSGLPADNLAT

[3] = molecular target: VPAC1 (Homo sapiens, UniProt P32241)

HSDAVFTDNY10TRLRKQMAVK20KYLNSILN [VIP]
activation of VPAC2 receptor relative to PACAP [1]: equally to the PACAP ligand | activity at the PAC1 receptor relative to PACAP [2]: several orders of magnitude less active | activation of VPAC1 receptor relative to PACAP [3]: equally to the PACAP ligand
